Results taken from patent US10053498B2, “Compositions comprising serum albumin and p53 peptides fusion proteins” (University of the Sciences of Philadelphia, priority 2014, dated 2018).

Amino acid sequences for entries named in this document (tags omitted).
UniProt Q07820, whole entry: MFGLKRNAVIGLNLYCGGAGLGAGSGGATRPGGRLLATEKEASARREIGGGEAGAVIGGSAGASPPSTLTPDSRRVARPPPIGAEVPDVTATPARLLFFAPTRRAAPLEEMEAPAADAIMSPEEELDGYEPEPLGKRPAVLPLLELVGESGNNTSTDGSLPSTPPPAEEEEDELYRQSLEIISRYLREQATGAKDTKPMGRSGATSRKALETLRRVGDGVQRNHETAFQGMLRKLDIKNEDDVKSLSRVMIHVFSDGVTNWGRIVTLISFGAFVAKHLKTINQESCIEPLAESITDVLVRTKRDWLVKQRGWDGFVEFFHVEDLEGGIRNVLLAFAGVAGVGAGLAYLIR
UniProt Q07817, whole entry: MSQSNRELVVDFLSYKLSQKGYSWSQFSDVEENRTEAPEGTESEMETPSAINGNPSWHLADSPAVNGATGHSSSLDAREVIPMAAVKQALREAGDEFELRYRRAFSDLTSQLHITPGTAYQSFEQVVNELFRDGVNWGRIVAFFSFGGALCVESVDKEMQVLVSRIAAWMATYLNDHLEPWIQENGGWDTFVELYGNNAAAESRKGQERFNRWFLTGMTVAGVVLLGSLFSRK

What was measured:
[1] = Gel shift assay of rHSA/FA-FITC complex formation; assay type: binding; conditions: compared among rHSA, rHSA-P53i and rHSA-PMI (FIG. 6A)
Procedure: All recombinant albumins were defatted following a previous publication. FA-FITC was synthesized by mixing 1× 1-Hexadecylamine and 2× N,N-Diisopropylethylamine (Sigma) followed by addition of 1×NHS-Fluorescein (Thermo Scientific). This reaction was carried out overnight, protected from light. Products were then purified by HPLC and identified by MS. For experiments designed to detect FA/HSA complex formation, rHSA (30 pmol, dissolved in 1×PBS) was incubated with or without FA-FITC at desired molar ratios and then separated by 0.5×TBS PAGE. Due to the incorporation of fluorescent molecules, HSA bound by FA-FITC in gel can be visualized under UV. Assays to determine the degree of displacement of FA-FITC were performed by adding an excess amount of unlabeled FA to pre-formed rHSA/FA-FITC complexes, at the indicated molar ratios. Reactions were conducted in PBS containing 10% glycerol at room temperature for 30 minutes. The products were separated using non-denaturing 0.5×TBS PAGE and then visualized under 305 nm UV. Experiments to determine the effect of the presence of serum on HSA/FA complexes were conducted using pre-formed biotin-rHSA/FA-FITC complexes. […] Next, samples were centrifuged to pull down biotin-HSA/FA-FITC and a portion of each supernatant was analyzed using 0.5×TBS PAGE as above.

cytochrome C = conditions: increasing amounts, Hela, SJSA-1 and MDA-MB-231 cells
MDM2 = test: Western blot and densitometry of MDM2 protein in SJSA-1 cells; assay type: cell-based; conditions: 10 μM, 24 hrs, densitometry
Procedure: (§1) SJSA-1 cells were lysed in buffer containing 20 mM Tris-HCl, 50 mM NaCl, 0.05% Triton X-100, and protease inhibitor cocktail. […] Mixtures were then allowed to incubate for 1 hour at RT.

MDA-MB-231 cells = test: CyQuant cytotoxicity assay in MDA-MB-231 cells; assay type: cell-based; conditions: 24 hrs, relative to rHSA-treated cells; nutlin 10 μM, ABT-263 2.5 μM (FIG. 13)
p53 = test: Western blot and densitometry of p53 protein in SJSA-1 cells; assay type: cell-based; conditions: 10 μM, 24 hrs, densitometry (FIG. 5 legend)
Procedure: as §1

SJSA-1 cells [2] = test: Confocal microscopy of cellular uptake of FITC-labeled rHSA proteins and rHSA/FA-FITC complexes; assay type: cell-based; conditions: 5 μM FITC-labeled protein; for uptake into SJSA-1 cells: 1% FBS, 24 hours
Procedure: On day 1, SJSA-1 cells were seeded in 6-well plates, at a density of 80,000 cells per well, and allowed to attach overnight. Treatment media containing 1% FBS plus 5 μM FITC-labeled rHSA (FITC-rHSA), FITC-rHSA-P53i or FITC-rHSA-PMI was added to wells on day 2 and allowed to incubate for 24 hours. For experiments to examine the internalization activity of FA-FITC-modified rHSA, SJSA-1 cells were plated as described above. On day 2, rHSA fusion proteins (dissolved in 1×PBS) were incubated with FA-FITC at a 1:2 molar ratio (rHSA:FA-FITC; 5 μM:10 μM) to allow formation of rHSA/FA-FITC complexes. Reactions were conducted in PBS at room temperature for 30 minutes, prior to dilution in RPMI media (without FBS) and addition to wells. Following a 24 hour incubation period, cells were trypsinized, re-plated onto coverslips and allowed to re-attach for 2 hours. Upon re-attachment, cells were washed 3× with PBS and maintained in phenol red-free media. For visualization, imaging was performed using a Nikon TiE (Eclipse) confocal microscope with a CSU-X spinning disk confocal scan head (Yokogawa), a linear encoded x, y robotic stage (ASI Technologies, Inc.), equipped with a multi-bandpass dichromatic mirror and bandpass filters (Chroma Technology Corp.) in an electronic filter wheel for selection of FITC. 488 nm laser illumination was provided by a 50 mW monolithic laser combiner (MLC400, Agilent Technologies) and images were acquired using a 60×1.40 NA objective and the Clara interline CCD camera (Andor Technology).

[3] = test system: mitochondria in SJSA-1 and Hela cells; test: Mitochondrial co-localization by fluorescence microscopy; assay type: cell-based; conditions: 5 μM FITC-labeled protein
Procedure: Mitochondrial and nuclear staining was performed using MitoTracker Deep Red (red) and Hoechst 33342 (blue), and the cells were then subjected to immunofluorescence microscopy. […] This may be consistent with localization of serum albumin with lysosomal system or secretory apparatus as has been previously seen (Yokota and Fahimi, Proceedings of National Academy of Sciences of the United States of America, 78: 4970-4974, 1981; Baghdiguian et al., Cancer Letters 101179-84, 1996). Despite efficient rHSA uptake in all conditions, mitochondrial co-localization was not observed in cells treated with rHSA (A and C).

Hela cells = test: CyQuant cytotoxicity assay in Hela cells; assay type: cell-based; conditions: 24 hrs, relative to rHSA-treated cells; nutlin 10 μM, ABT-263 2.5 μM (FIG. 13)
SJSA-1 cells [4] = test: CyQuant cytotoxicity assay in SJSA-1 cells; assay type: cell-based
Procedure: Osteosarcoma SJSA-1 cells (ATCC) were grown in RPMI media containing 10% FBS. Cytotoxicity assays were performed using SJSA-1 cells plated in 24- or 96-well plates at 20,000 or 5,000 cells per well, respectively. Cells were allowed to attach overnight. All treatments were added on day 2 in RPMI media containing 1% FBS plus the equivalent amounts of 1×PBS buffer. Unless otherwise indicated, cells were exposed to treatment media for 24 hours, at which time cytotoxicity was measured using the fluorometric CyQuant assay (Invitrogen, C35006) or the fluorometric Homogeneous Caspase assay (Roche, 03005372001), according to the manufacturer's instructions, for detection of apoptosis. All results were plotted relative to rHSA- or where indicated, rHSA/FA-FITC-treated cells.

Mcl-1 = Mcl-1 (Homo sapiens, UniProt Q07820); conditions: MDA-MB-231, SJSA-1 or Hela whole cell lysates
Bcl-xL = Bcl-xL (Homo sapiens, UniProt Q07817); conditions: MDA-MB-231, SJSA-1 or Hela whole cell lysates

Substance | degree of FA binding [1] | amount of cytochrome C in the cytoplasmic fraction (cytochrome C) | change in MDM2 protein expression (MDM2) [fold] | cell death in MDA-MB-231 cells (p53 negative) (MDA-MB-231 cells) | p53 accumulation above control wells (p53) | uptake into SJSA-1 cells (SJSA-1 cells [2]) | uptake compared to rHSA (FITC staining of vesicular cargo) (SJSA-1 cells [2]; 24-hour incubation) | co-localization with mitochondria [3] | cell death in Hela cells (p53 under-expressing) (Hela cells) | cell death (SJSA-1 cells [4]; 24-hour treatment, relative to 10 μM rHSA-treated cells (FIG. 4A)) | cell death in SJSA-1 cells (p53 positive) (SJSA-1 cells [4]; 24 hrs, relative to rHSA-treated cells, nutlin 10 μM (FIG. 13)) | binding to Mcl-1 (pull-down) (Mcl-1) | binding to Bcl-xL (pull-down) (Bcl-xL)
rHSA-P53i: recombinant HSA fused at its C-terminal, via a DEVDG caspase cleavage linker, to wild type p53 peptide ETFSDLWKLLPE (SEQ ID NO: 1) | similar | increased in the cytoplasmic fraction in a dose dependent manner | 1.1 | induced cell death | 1.5 orders of magnitude | taken up | significantly greater uptake | efficiently co-localized | induced cell death | approximately 60% | induced cell death |  | 
rHSA: recombinant human serum albumin without fused peptide, used as control protein | similar |  |  |  |  | taken up |  | not observed |  |  |  | but not | but not
